From ChEMBL document CHEMBL1128301, “Cephalosporin derivatives of doxorubicin as prodrugs for activation by monoclonal antibody-beta-lactamase conjugates” (J Med Chem, 1995)

Sequences of proteins named here, by UniProt entry; tags and fusion partners are left off.
UniProt P05364, whole entry, looked up: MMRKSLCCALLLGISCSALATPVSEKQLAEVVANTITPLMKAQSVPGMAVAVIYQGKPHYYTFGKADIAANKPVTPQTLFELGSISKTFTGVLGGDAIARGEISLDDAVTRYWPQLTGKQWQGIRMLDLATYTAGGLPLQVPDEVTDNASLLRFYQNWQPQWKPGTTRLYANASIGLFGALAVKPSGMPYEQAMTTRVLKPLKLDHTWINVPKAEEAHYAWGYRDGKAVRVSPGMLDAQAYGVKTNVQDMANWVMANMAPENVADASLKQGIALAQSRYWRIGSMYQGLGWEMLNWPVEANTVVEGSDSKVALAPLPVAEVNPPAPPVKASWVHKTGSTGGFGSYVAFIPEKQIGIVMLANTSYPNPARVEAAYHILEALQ
UniProt P62593, whole entry: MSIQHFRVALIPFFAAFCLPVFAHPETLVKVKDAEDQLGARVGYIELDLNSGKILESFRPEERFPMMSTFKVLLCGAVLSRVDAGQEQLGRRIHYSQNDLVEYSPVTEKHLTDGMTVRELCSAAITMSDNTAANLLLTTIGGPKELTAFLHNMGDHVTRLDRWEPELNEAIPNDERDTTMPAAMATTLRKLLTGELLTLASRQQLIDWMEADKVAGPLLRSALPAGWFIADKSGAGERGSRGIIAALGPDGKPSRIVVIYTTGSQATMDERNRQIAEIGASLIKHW

Experiments:
[1] = target: Beta-lactamase (Enterobacter cloacae) (UniProt P05364); test: The kinetic constant(kcat) value as spectrophotometrically by using Enterobacter cloacae P99 beta-lactamase (ECIbL) enzyme as catalyst
Outline: (§1)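 Spectrophotometric hydrolysis at 23 °C in PBS with 12.5 μg/mL BSA. EClbL was used at 0.1 μg/mL; BCbL and ECbL at 1.0 μg/mL. […] Initial velocities were linear over 1 min. Km and kcat came from direct linear plots, as the mean of ≥3 independent runs.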

[2] = target: Beta-lactamase TEM (Escherichia coli) (UniProt P62593); test: The kinetic constant(kcat) value as spectrophotometrically by using Escherichia coli TEM-1 beta-lactamase (ECbL) enzyme as catalyst; outline: as §1
[3] = target: T1, Metallo-beta-lactamase type 2 (Bacillus cereus) (UniProt P14488); test: The kinetic constant(kcat) value as spectrophotometrically by using Bacillus cereus beta-lactamase (BCbL) enzyme as catalyst; outline: as §1
T1 sequence (whole entry): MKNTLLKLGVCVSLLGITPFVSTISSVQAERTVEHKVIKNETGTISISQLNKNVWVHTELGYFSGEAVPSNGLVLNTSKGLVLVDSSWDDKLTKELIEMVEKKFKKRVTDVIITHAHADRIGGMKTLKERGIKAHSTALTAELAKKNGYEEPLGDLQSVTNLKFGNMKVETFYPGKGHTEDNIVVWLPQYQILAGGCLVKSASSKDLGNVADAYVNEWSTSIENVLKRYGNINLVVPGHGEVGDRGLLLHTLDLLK

k cat [1]: 280 s⁻¹
k cat [2]: 8.4 s⁻¹
k cat [3]: 30 s⁻¹
SMILES: COc1cccc2c1C(=O)c1c(O)c3c(c(O)c1C2=O)C[C@@](O)(C(=O)CO)C[C@@H]3OC1CC(NC(=O)OCC2=C(C(=O)O)N3C(=O)[C@@H](NC(=O)Cc4ccccc4)[C@H]3SC2)C(O)C(C)O1 (stereo partly drawn)
